These are literature values, as cited in article PMC9025555, “Chiral Recognition R- and RS- of New Antifungal: Complexation/Solubilization/Dissolution Thermodynamics and Permeability Assay” (Pharmaceutics, 2022).

The conditions of this data set: no reference given; cited from earlier work.

Consider `OC[C@H]1O[C@@H]2O[C@H]3[C@H](O)[C@@H](O)[C@@H](O[C@H]4[C@H](O)[C@@H](O)[C@@H](O[C@H]5[C@H](O)[C@@H](O)[C@@H](O[C@H]6[C@H](O)[C@@H](O)[C@@H](O[C@H]7[C@H](O)[C@@H](O)[C@@H](O[C@H]8[C@H](O)[C@@H](O)[C@@H](O[C@H]1[C@H](O)[C@H]2O)O[C@@H]8CO)O[C@@H]7CO)O[C@@H]6CO)O[C@@H]5CO)O[C@@H]4CO)O[C@@H]3CO` [β-cyclodextrin, β-Cyclodextrin], for which the aqueous solubility result is listed as “about 18.5 mg·mL^−1”.
